Laboratory results as given in patent US11427783B2, “Perfuming compositions” (Firmenich SA, priority 2016, dated 2022).

Assay: physchem

Row | Compound | logP
1 | CC/C=C\CC/C=C/C=O [(2E,6Z)-2,6-NONADIENAL″, (2E,6Z)-2,6-NONADIENAL] | 2.56
2 | CCCCC/C=C/CCC=O [(E)-4-DECENAL] | 3.73
